Test results published in ChEMBL document CHEMBL5325398, “Design of Cytochrome P450 1B1 Inhibitors via a Scaffold-Hopping Approach” (J Med Chem, 2023).

Sequences of proteins named here, by UniProt entry; tags and fusion partners are left off. A change or cut given only in a name is not applied to a line headed by its entry.
UniProt P05177, whole entry: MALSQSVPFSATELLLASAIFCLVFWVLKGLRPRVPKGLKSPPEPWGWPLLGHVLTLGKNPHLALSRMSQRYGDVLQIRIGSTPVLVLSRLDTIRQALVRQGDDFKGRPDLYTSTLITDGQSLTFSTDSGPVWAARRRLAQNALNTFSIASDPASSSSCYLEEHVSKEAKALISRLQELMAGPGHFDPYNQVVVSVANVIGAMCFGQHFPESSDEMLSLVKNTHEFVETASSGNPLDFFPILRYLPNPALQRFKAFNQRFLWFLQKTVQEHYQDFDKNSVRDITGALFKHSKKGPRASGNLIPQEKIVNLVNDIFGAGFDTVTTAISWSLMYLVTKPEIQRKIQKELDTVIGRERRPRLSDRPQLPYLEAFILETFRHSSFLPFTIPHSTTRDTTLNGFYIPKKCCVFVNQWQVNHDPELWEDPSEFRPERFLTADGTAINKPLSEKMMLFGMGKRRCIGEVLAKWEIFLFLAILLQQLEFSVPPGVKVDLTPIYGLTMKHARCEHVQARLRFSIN
UniProt P08684, whole entry: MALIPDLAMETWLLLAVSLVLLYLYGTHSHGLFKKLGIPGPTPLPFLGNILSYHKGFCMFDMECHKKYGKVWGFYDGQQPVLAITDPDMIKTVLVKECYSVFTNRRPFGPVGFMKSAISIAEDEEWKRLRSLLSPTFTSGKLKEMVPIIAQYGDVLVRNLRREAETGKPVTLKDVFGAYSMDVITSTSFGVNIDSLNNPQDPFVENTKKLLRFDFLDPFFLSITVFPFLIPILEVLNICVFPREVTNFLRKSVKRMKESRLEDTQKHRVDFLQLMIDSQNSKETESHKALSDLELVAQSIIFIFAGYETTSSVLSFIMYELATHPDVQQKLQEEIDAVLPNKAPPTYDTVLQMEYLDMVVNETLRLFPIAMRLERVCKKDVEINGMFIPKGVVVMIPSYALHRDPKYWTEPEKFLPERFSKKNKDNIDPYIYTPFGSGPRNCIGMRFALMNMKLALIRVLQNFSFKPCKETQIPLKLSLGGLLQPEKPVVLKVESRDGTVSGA
UniProt P10635: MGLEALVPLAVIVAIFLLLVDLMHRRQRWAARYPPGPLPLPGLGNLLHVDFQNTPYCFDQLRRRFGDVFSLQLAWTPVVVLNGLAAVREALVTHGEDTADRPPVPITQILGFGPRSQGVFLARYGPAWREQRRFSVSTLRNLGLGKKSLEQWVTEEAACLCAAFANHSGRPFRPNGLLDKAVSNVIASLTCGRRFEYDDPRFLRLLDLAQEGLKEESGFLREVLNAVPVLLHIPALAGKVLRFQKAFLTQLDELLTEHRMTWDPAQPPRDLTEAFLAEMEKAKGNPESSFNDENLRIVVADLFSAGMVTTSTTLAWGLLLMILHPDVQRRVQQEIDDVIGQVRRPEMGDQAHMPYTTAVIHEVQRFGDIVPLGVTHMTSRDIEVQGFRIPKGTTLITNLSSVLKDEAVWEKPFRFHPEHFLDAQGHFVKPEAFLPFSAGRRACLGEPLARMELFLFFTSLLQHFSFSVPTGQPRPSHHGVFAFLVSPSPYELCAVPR
UniProt P11509: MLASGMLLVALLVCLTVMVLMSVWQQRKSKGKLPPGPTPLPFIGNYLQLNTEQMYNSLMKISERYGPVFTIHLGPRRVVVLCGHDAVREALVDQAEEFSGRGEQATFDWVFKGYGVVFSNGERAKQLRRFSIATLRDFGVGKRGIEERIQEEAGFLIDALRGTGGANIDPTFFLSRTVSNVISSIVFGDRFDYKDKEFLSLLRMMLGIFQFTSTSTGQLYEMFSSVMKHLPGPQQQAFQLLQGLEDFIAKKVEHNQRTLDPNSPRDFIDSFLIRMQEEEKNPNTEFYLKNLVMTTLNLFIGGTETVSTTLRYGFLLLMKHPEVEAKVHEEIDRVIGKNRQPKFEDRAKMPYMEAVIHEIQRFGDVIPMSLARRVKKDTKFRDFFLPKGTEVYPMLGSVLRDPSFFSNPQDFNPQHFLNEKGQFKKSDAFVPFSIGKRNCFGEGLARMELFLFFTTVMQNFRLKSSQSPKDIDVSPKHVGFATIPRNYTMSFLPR
UniProt P11712: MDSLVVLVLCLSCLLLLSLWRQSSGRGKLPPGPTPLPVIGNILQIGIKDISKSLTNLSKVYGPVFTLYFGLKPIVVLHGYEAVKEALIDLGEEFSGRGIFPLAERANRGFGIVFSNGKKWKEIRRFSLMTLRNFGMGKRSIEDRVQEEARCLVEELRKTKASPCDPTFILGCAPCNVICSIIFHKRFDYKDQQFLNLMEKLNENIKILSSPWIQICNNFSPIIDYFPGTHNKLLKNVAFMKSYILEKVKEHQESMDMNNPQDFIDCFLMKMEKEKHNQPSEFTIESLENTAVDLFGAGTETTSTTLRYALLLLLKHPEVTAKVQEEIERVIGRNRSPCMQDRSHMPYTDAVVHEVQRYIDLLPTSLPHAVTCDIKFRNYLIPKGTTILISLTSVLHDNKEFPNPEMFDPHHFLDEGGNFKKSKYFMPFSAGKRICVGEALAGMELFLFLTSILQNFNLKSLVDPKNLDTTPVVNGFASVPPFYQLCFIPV
UniProt P20853: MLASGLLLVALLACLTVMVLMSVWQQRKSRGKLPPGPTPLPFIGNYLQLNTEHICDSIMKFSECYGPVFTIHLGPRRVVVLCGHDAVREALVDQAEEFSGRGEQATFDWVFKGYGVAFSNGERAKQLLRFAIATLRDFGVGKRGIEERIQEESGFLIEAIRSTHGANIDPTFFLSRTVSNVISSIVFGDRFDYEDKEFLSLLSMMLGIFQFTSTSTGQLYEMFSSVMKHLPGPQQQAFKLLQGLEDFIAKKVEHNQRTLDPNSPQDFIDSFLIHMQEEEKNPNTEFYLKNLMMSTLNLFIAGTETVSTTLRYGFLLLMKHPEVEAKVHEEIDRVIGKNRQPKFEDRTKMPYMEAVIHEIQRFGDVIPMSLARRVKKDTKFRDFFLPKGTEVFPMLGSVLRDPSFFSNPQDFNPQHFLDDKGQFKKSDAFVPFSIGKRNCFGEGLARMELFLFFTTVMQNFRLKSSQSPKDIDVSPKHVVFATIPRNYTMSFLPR
UniProt P24462: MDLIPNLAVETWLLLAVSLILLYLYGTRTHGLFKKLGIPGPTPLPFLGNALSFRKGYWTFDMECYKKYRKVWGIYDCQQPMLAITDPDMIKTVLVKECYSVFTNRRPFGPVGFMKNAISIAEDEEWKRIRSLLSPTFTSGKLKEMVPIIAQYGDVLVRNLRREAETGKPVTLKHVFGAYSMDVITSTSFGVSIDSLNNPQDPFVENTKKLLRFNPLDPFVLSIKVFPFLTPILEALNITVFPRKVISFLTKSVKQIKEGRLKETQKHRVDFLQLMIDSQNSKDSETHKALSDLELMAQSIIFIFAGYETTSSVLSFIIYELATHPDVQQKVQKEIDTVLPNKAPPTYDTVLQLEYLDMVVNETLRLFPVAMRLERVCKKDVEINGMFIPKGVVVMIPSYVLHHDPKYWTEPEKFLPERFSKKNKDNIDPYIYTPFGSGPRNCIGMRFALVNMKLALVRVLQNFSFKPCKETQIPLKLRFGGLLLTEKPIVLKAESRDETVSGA
UniProt P24903: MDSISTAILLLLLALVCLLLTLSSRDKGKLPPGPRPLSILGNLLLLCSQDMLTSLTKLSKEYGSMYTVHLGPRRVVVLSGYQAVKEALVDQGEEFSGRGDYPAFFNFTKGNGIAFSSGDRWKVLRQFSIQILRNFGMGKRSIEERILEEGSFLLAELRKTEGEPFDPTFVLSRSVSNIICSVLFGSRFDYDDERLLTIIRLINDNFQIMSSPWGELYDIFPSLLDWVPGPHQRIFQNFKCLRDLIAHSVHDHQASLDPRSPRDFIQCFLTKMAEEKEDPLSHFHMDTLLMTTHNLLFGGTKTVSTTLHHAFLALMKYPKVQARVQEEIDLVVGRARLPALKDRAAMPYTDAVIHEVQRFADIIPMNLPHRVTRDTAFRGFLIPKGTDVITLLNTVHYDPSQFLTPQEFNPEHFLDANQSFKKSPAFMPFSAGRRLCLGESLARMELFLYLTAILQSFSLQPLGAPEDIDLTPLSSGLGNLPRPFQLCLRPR
UniProt P33260: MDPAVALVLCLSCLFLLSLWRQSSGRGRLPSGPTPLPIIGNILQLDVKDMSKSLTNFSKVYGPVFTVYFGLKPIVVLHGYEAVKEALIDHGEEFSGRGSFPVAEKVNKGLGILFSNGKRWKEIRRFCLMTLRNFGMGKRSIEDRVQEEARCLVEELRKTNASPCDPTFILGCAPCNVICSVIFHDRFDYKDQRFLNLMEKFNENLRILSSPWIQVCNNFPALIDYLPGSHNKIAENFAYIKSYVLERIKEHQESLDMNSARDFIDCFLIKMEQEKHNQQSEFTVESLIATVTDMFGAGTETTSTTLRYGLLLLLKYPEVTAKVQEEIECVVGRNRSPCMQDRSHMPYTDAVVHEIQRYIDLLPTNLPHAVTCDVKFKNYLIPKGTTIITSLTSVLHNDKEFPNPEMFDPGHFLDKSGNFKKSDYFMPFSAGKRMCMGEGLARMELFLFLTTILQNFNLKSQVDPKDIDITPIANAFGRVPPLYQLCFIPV
UniProt Q08477: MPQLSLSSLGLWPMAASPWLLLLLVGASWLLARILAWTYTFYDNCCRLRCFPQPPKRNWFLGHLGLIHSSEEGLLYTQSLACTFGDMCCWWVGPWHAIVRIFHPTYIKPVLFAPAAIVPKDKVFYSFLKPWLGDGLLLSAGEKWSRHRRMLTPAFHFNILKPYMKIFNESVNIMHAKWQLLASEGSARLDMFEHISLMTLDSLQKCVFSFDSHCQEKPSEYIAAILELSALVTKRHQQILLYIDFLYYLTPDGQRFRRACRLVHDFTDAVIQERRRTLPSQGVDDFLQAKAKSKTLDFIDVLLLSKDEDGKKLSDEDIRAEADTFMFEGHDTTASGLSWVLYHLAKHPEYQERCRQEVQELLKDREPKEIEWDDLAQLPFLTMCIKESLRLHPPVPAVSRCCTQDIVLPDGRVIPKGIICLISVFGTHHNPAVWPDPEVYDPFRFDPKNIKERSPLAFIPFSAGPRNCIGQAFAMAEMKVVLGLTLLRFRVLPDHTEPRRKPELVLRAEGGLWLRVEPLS
UniProt Q16696: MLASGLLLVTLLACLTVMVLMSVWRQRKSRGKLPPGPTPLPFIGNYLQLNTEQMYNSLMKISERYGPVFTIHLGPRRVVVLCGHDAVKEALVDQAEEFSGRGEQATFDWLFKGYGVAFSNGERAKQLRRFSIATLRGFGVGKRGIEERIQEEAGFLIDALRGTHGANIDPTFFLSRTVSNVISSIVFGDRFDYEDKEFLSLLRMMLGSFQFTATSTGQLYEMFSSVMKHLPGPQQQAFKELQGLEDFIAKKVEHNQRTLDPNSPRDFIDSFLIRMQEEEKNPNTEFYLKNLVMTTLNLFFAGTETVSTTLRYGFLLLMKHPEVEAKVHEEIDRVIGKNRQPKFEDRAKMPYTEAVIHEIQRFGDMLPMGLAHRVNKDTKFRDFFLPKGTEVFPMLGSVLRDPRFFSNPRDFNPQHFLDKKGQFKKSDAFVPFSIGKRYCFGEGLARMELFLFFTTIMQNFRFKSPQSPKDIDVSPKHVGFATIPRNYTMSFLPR
UniProt Q6VVX0: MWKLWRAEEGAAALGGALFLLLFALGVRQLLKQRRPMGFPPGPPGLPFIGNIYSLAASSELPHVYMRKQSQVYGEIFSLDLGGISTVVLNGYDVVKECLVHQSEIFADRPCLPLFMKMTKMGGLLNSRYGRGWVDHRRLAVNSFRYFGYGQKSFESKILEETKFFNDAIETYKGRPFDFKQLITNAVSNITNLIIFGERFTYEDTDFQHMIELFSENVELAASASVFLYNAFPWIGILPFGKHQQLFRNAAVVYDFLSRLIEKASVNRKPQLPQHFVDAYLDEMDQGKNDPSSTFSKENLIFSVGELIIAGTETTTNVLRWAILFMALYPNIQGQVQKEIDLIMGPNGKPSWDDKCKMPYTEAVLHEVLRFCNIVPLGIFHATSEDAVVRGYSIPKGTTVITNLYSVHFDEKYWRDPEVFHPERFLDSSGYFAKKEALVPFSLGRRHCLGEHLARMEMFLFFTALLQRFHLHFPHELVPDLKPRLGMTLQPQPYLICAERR
UniProt Q7Z449: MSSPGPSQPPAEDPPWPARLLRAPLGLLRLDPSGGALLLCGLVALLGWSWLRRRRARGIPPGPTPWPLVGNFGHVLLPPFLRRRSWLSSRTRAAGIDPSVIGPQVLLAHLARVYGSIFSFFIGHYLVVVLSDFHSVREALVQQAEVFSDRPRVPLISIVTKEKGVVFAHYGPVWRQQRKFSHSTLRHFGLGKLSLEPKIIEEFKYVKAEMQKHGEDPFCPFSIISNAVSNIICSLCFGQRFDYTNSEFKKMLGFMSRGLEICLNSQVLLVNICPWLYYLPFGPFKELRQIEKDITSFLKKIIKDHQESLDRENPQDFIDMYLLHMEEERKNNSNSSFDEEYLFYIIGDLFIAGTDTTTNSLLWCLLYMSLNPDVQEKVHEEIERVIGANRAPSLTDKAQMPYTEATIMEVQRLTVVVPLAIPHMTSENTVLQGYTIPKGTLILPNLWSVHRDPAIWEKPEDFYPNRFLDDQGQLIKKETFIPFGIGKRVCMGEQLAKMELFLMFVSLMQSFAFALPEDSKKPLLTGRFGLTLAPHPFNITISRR

Legend:
Cytochrome P450 1B1 [1] = molecular target: T1, Cytochrome P450 1B1 (Homo sapiens, UniProt Q16678); experiment: Inhibition of CYP1B1 (unknown origin) expressed in HEK293-T-REx cells co-expressing POR incubated for 1 hr by resorufin dye based plate reader analysis; assay type: ADME, cell-based
T1 sequence (Q16678 whole entry): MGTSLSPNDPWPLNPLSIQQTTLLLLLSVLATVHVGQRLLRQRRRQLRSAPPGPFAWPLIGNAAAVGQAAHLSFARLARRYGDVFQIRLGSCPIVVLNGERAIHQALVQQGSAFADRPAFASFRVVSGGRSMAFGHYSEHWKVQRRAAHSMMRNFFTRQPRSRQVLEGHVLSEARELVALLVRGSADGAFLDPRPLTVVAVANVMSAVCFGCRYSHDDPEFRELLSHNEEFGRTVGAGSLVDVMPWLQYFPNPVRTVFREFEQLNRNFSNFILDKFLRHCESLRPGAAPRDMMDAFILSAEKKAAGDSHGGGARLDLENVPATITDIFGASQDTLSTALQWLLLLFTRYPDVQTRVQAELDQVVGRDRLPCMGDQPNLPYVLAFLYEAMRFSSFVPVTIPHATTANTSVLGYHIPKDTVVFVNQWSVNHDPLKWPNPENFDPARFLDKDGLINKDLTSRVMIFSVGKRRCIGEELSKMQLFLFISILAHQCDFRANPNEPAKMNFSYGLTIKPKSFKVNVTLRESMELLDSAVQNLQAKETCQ

Cytochrome P450 1A1 = molecular target: T2, Cytochrome P450 1A1 (Homo sapiens, UniProt P04798); experiment: Inhibition of CYP1A1 (unknown origin) expressed in HEK293-T-REx cells co-expressing POR incubated for 1 hr by resorufin dye based plate reader analysis; assay type: ADME, cell-based
T2 sequence (P04798 whole entry): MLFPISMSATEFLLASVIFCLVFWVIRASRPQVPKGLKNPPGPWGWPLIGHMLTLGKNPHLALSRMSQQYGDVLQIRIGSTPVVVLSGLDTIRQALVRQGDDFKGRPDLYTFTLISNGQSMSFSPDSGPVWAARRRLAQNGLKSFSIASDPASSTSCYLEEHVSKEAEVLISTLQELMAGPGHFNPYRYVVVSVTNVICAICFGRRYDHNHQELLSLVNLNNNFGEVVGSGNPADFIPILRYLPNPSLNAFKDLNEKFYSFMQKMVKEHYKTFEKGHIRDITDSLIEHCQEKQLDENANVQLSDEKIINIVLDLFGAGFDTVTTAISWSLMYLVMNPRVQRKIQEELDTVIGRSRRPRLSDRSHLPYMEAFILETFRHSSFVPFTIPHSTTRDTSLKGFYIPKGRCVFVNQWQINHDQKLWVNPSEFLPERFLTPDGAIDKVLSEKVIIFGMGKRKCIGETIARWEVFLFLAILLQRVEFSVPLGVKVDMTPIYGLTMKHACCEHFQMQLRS

[2] = tested on: CYP450 (liver microsomes) versus CYP1B1; experiment: in vitro; conditions: human, pooled liver microsomes (CYP450 arm)
Cytochrome P450 1B1 [3] = molecular target: T1, Cytochrome P450 1B1
in vitro [4] = conditions: rat, liver microsomes
in vitro [5] = conditions: mouse, liver microsomes
in vitro [6] = conditions: mouse, liver microsomes; remark: listed apart in the source
in vitro [7] = conditions: rat, liver
Cytochrome P450 1A2 = Cytochrome P450 1A2 (Homo sapiens, UniProt P05177)
Cytochrome P450 3A4 = Cytochrome P450 3A4 (Homo sapiens, UniProt P08684)
CYP450 (family) = CYP450 (family) (Homo sapiens, UniProt P04798+P05177+P05181+P08684+P10632+P10635+P11509+P11712+P13584+P20813+P20815+P20853+P24462+P24903+P33260+P33261+P51589+P78329+P98187+Q02928+Q08477+Q16678+Q16696+Q5TCH4+Q6VVX0+Q7Z449+Q8TAV3+Q96SQ9+Q9HB55); experiment: in vitro; conditions: pooled liver microsomes
[8] = Cytotoxicity against HEK293-T-REx cells assessed as reduction in cell viability measured after 72 hrs by resazurin dye based analysis; assay type: toxicity; conditions: human
CYP1A2 versus CYP1B1 = experiment: in vitro
CYP3A4 versus CYP1B1 = experiment: in vitro

| Structure (SMILES) | IC50 (Cytochrome P450 1B1 [1]) [nM] | IC50 (Cytochrome P450 1A1) [nM] | selectivity ratio [2] | Kd (Cytochrome P450 1B1 [3]) [nM] | IC50 (Cytochrome P450 3A4) [nM] | other results |
| --- | --- | --- | --- | --- | --- | --- |
| COc1cc(OC)cc(-c2cn(-c3cc(OC)cc(OC)c3)nn2)c1 | 1020 | > 10000 | > 9.8 | – | – | – |
| COc1cc(/C=C/c2ccc(OC)cc2OC)cc(OC)c1 | 66 | 1500 | – | 630 | – | half-life at 100 µM (in vitro [4]): 14.6 min; half-life at 100 µM (in vitro [5]): 2.6 min; microsomal CLint at 100 µM (in vitro [6]): 536 µL/min/mg; CLint scaled at 100 µM (in vitro [7]): 170 mL/min/kg |
| COc1ccc(-c2nc(-c3ccc(C#N)cc3)cs2)c(OC)c1 | 0.2 | 3980 | – | 490 | > 10000 | IC50 (Cytochrome P450 1A2): > 10000 nM |
| COc1cc(OC)cc(-c2cccc(-c3cc(OC)cc(OC)c3)c2)c1 | 38 | > 10000 | 263 | 140 | – | IC50 at 120 min (CYP450 (family)): 10000 nM |
| COc1cc(OC)cc(-c2ccc(-c3cc(OC)cc(OC)c3)cc2)c1 | > 10000 | > 10000 | – | – | – | IC50 at 72 h [8]: 10000 nM |
| COc1ccc(-c2nc(-c3ccc(F)cc3)cs2)c(OC)c1 | 6 | 3000 | > 1650 | 500 | > 10000 | IC50 (Cytochrome P450 1A2): > 10000 nM; selectivity ratio (CYP1A2 versus CYP1B1): > 1670; selectivity ratio (CYP3A4 versus CYP1B1): > 1670 |
| COc1cc(OC)cc(-c2ccccc2-c2cc(OC)cc(OC)c2)c1 | > 10000 | > 10000 | – | – | – | IC50 at 72 h [8]: 10000 nM |
| COc1ccc(/C=C/c2ccncc2)c(OC)c1 | 0.31 | – | – | – | – | – |
| COc1cc(OC)cc(-c2cncc(-c3cc(OC)cc(OC)c3)c2)c1 | 5 | 3000 | > 2000 | 370 | – | – |
| COc1cc(OC)cc(-c2csc(-c3cc(OC)cc(OC)c3)n2)c1 | 54 | 7100 | > 185 | 370 | – | – |
| COc1ccc(-c2ccccc2-c2ccc(OC)cc2OC)c(OC)c1 | > 10000 | > 10000 | – | – | – | – |
| COc1ccc(-c2nc(-c3ccc(O)cc3)cs2)c(OC)c1 | – | – | – | – | 1490 | – |
| COc1ccc(-c2nc(-c3cccnc3)cs2)c(OC)c1 | – | 25 | 4 | 550 | 1580 | IC50 (Cytochrome P450 1A2): 68 nM; selectivity ratio (CYP1A2 versus CYP1B1): 12.4; selectivity ratio (CYP3A4 versus CYP1B1): 287 |
| COc1ccc(-c2cccc(-c3ccc(OC)cc3OC)c2)c(OC)c1 | > 10000 | > 10000 | – | 250 | – | – |
| COc1ccc(-c2csc(-c3ccc(OC)cc3OC)n2)c(OC)c1 | 1 | – | – | 340 | > 10000 | – |
| COc1cc(OC)cc(-c2ccnc(-c3cc(OC)cc(OC)c3)n2)c1 | 19 | 3000 | 200 | 320 | – | – |
| COc1ccc(-c2csc(-c3ccc(OC)cc3OC)n2)cc1 | – | 2900 | – | 390 | > 10000 | – |
| COc1ccc(-c2ccc(-c3ccc(OC)cc3OC)cc2)c(OC)c1 | > 10000 | > 10000 | – | – | – | – |
| COc1cc(OC)cc(-c2ccc(-c3cc(OC)cc(OC)c3)s2)c1 | > 10000 | > 10000 | < 0.4 | – | – | – |
| COc1cc(OC)cc(-c2cc(-c3cc(OC)cc(OC)c3)ncn2)c1 | 100 | 3000 | 100 | 120 | – | – |
